Data taken from patent publication US20220313694A1, “REDUCED CALORIC INTAKE AND ANTICANCER AGENTS FOR THE TREATMENT OF CANCER” (IFOM FONDAZIONE ISTITUTO FIRC DI ONCOLOGIA MOLECOLARE, priority 2021, published 2022).
Where two headings read alike, the source gives them in different places.

Tests used:
SUM159 cells [1] = experiment: In vitro sphere forming assay, SUM159 cells under CTR/STS; type: cell-based, human; details: STS (0.5 g/l glucose, 1% FBS), 48 h; agent added (8-Br-cAMP 0.5 mM; glucose 1 g/l; FBS 10%, IGF-1 250 ng/ml, EGF 200 ng/ml, insulin 200 ng/ml; rapamycin 10 μM, pictilisib 10 μM, ipatasertib 20 μM)
SUM159 cells [2] = test system: SUM159 cells

For “EGF: FBS component, epidermal growth factor, 200 ng/ml (NSDSECPLSHDGYCLHDGVCMYIEALDKYACNCVVGYIGERCQYRDLKWWELR; Epidermal growth factor; UniProt P01133 971-1023, looked up)”, the “in vitro sphere / mammosphere formation” value (SUM159 cells [1]) was “did not have an effect on mammospheres growth”.
For `OC[C@H]1OC(O)[C@H](O)[C@@H](O)[C@@H]1O` (stereo partly shown) [glucose], the “in vitro sphere / mammosphere formation” value (SUM159 cells [1]) was “almost entirely rescued”.
For “IGF1: FBS component, insulin growth factor 1, 250 ng/ml”, the “in vitro sphere / mammosphere formation” value (SUM159 cells [1]) was “did not have an effect on mammospheres growth”.
For `Nc1ncnc2c1nc(Br)n2[C@@H]1O[C@@H]2COP(=O)(O)O[C@H]2[C@H]1O` [8-Br-cAMP, 8-Bromoadenosine 3′,5′-cyclic mono-phosphate], the “in vitro sphere / mammosphere formation” value (SUM159 cells [1]) was “reversed fasting/STS-dependent spheres reduction”.
For `CS(=O)(=O)N1CCN(Cc2cc3nc(-c4cccc5[nH]ncc45)nc(N4CCOCC4)c3s2)CC1` [pictilisib], the cancer cell death (SUM159 cells [2]; CTR conditions (1 g/L glucose; 10% FBS), drug for 24 hours) was “seems to not have any effect under CTR conditions” and the cancer cell death (SUM159 cells [2]; STS conditions, drugs for 24 hours (rapamycin 10 μM, pictilisib 10 μM, ipatasertib 20 μM)) was “the most efficacious in inducing cancer cell death under STS conditions”.
In the case of insulin: FBS component, 200 ng/ml, the “in vitro sphere / mammosphere formation” value (SUM159 cells [1]) is reported as “did not have an effect on mammospheres growth”.
